Earlier results as cited in patent US20020064550A1, “Edible candy compositions and methods of using same” (AkPharma, Inc., priority 2000, published 2002).

Settings: water

1,2,3-propanetriol, mono(dihydrogen phosphate) calcium salt (1:1) [calcium glycerophosphate]
solubility: about 1 gram in about 50 mL of water
